Assay results reported in US9062043B2, “Fused tricyclic compounds as serine-threonine protein kinase and PARP modulators” (SENHWA BIOSCIENCES, INC., priority 2006, dated 2015).

The chains behind the UniProt entries cited, without tags or fusion partners. Residues count along the entry.
UniProt P06239, 2-509 limits assumed: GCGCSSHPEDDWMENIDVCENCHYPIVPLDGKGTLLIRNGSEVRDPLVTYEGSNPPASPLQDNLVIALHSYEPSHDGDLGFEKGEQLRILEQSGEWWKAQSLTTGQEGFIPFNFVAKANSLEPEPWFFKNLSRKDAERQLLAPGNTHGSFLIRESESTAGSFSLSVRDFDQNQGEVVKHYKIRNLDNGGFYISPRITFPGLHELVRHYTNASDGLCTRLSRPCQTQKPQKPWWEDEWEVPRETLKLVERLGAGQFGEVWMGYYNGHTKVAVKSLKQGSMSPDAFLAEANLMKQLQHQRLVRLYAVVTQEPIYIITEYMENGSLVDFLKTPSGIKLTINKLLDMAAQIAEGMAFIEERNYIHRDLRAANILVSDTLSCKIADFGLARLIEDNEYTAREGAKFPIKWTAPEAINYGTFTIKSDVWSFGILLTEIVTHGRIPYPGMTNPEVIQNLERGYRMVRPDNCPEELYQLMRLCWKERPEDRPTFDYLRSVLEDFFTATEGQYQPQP

Columns and labels:
[1] = target: protein kinases (Homo sapiens, UniProt Q13043); assay: Kinase inhibition, percentage of activity at 0.5 μM, standardized radiometric kinase assays; assay type: biochemical; details: MST1(h);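 note: each kinase tested separately, with activity read as 33P-labelled substrate protein captured on filters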
[2] = target: protein kinases (Homo sapiens, UniProt Q9HBH9); assay: as above; assay type: biochemical; details: Mnk2(h)
[3] = target: protein kinases (Homo sapiens, UniProt P24941); assay: as above; assay type: biochemical; details: CDK2/cyclinA(h)
[4] = target: protein kinases (Homo sapiens, UniProt P06239); assay: as above; assay type: biochemical; details: Lck(h)
[5] = target: protein kinases (Homo sapiens, UniProt O94804); assay: as above; assay type: biochemical; details: LOK(h)
[6] = system: MiaPaca xenografts; assay: Tumor suppression in MiaPaca xenograft mice; assay type: in vivo
[7] = system: MDA-MB-231 xenografts; details: IV 30 and 60 mg/kg and oral 200 mg/kg
[8] = system: BC-PC3 cells xenograft; details: 60 mg/kg QD IV, 50 mg/kg BID IV or 100 mg/kg BID IP

For `C#Cc1cccc(Nc2nc3cc(C(=O)O)ccc3c3cncnc23)c1` [compound A2], the “% activity at 0.5 μM” value [1] was 96%, the “% activity at 0.5 μM” value [2] was 63% and the “% activity at 0.5 μM” value [3] was 63%. The “% activity at 0.5 μM” value [4] was 63%, the “% activity at 0.5 μM” value [5] was 84% and the Tumor progression inhibition ([6]; IV 50 and 60 mg/kg and IP 100 mg/kg) was “significantly inhibited tumor progression”. For the same compound, the Tumor progression inhibition ([6]; oral 100 mg/kg QDx8 and 200 mg/kg QDx6) was “significantly inhibited tumor progression”, the Tumor progression inhibition [7] was “significantly inhibited tumor progression” and the “Tumor progression inhibition (FIG. 4A)” value [8] was “significantly inhibited tumor progression”.
